According to patent publication US8288406B2, “Hydroxymethylcyclohexylamines” (dated 2012):
Where two headings read alike, the source gives them in different places.

Protein sequences, listed by entry. Tags and fused reporters are not part of them. Lines headed by an entry give the natural chain unless they say otherwise; changes in a name come on top.
UniProt P35372, whole entry, looked up: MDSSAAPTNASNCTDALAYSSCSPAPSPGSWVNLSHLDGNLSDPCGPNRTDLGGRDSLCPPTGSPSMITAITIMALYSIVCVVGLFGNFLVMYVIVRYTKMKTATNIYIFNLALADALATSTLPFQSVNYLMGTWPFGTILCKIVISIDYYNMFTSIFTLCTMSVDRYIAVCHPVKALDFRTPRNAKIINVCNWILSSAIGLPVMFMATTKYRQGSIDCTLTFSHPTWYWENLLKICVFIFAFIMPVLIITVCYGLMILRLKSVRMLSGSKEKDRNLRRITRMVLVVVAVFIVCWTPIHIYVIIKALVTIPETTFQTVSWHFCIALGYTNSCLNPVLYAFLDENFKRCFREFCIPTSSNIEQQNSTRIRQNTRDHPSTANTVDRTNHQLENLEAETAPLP
UniProt P41146: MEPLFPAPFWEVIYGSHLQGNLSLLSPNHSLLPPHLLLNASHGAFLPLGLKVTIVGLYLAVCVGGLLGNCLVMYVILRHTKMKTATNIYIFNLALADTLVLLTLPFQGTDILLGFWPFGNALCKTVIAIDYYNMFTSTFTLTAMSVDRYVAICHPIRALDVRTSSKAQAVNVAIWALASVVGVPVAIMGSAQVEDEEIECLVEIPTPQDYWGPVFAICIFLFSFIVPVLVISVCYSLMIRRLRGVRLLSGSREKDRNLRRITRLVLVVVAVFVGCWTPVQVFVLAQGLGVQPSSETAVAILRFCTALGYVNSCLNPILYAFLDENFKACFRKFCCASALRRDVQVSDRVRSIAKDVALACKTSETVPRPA

Key:
[1] = target: T1, human μ opiate receptor (Homo sapiens, UniProt P35372); assay: μ binding: [3H]-naloxone displacement, membrane preparation of CHO-K1 cells; settings: 1 nmol/l [3H]-naloxone; for % inhibition (μ) [1 μM]: 1 μmol/l test substance; for Ki: read-out: Ki (μ) mean, Cheng-Prusoff
[2] = target: T2, ORL1 receptor (Homo sapiens, UniProt P41146); assay: ORL1 binding: receptor binding assay with 3H-nociceptin/orphanin FQ, membranes from recombinant CHO-ORL1 cells; settings: 0.5 nM 3H-nociceptin/orphanin FQ; for % inhibition (ORL1) [1 μM]: c=1 μM; for Ki: read-out: Ki (ORL1) mean
[3] = target: T2, ORL1 receptor; settings: read-out: Ki (ORL1) mean; data described in the literature (WO 04/043900); cited from earlier work
[4] = target: T1, human μ opiate receptor; settings: read-out: Ki (μ) mean; data described in the literature (WO 04/043900); cited from earlier work
[5] = system: pain latency (tail flick) in rats; assay: Analgesia in the tail flick test in rats; settings: intravenous, 20 minutes after administration
[6] = Nephelometric solubility study (phosphate buffer pH 7.4); settings: for Solubility (pH 7): lower solubility limit, 10 mM phosphate buffer, 1% DMSO, 37° C., 2 h

| Structure (SMILES) | % inhibition (μ) [1 μM] [1] [%] | % inhibition (ORL1) [1 μM] [2] [%] | Ki [1] [nM] | Ki [2] [nM] | also measured |
| --- | --- | --- | --- | --- | --- |
| CN(C)C1(c2ccccc2)CCC(C(O)Cc2ccc(F)cc2)CC1 (centres unmarked) | 103 | 97 | – | – | – |
| CN(C)C1(c2cccs2)CCC(C(O)COC2CCCCC2)CC1 (centres unmarked) | – | – | 4.6 | 45 | – |
| CN(C)C1(c2ccccc2)CCC(C(O)COc2ccccc2)CC1 (single isomer, unassigned) | – | – | 6.5 | 30 | – |
| CN(C)C1(c2ccccc2)CCC(C(O)Cn2ccc3ccccc32)CC1 (centres unmarked) | – | – | 1 | 4.1 | – |
| CN(C)C1(c2ccccc2)CCC(C(O)C#Cc2cn(C(=O)OC(C)(C)C)c3ccccc23)CC1 (centres unmarked) | – | – | – | – | Ki [3]: 730 nM; Ki [4]: 86 nM |
| CN(C)C1(c2ccccc2)CCC(C(O)COCc2ccccc2)CC1 (centres unmarked) | – | – | 10.7 | 130 | – |
| CN(C)C1(c2cccc(F)c2)CCC(C(O)Cc2ccccc2)CC1 (centres unmarked) | 99 | 93 | – | – | – |
| CN(C)C1(c2ccccc2)CCC(C(O)CN2Cc3ccccc3C2)CC1 (centres unmarked) | 99 | 71 | – | – | – |
| COc1cccc(C2(N(C)C)CCC(C(O)Cc3ccccc3)CC2)c1 (centres unmarked) | – | – | 11.3 | 370 | – |
| CN(C)C1(c2ccccc2)CCC(C(O)Cc2ccccc2)CC1 (single isomer, unassigned) | – | – | 2080 | 605 | TF rat ED50 i.v. [5]: 0.0317 mg/kg; Solubility (pH 7) [6]: 100 μmol/l; better solubility in aqueous media than the compound of Comparison Example 2 ([6]; relative to Comparison Example 2): about 10 fold; Ki ([1]; hydrochloride): 3.2 nM; Ki ([2]; hydrochloride): 1.9 nM |
| CCCCC1(N(C)C)CCC(C(O)Cc2ccccc2)CC1 (centres unmarked) | – | – | 11 | 400 | – |
| CN(C)C1(c2ccccc2)CCC2(OCCc3c2[nH]c2ccccc32)C(CO)C1 (racemic) | 99 | 80 | – | – | Solubility (pH 7) [6]: 10 μmol/l |
| CN(C)C1(c2ccccc2)CCC(C(O)COC2CCCCC2)CC1 (centres unmarked) | – | – | 12 | 91 | – |
